Key:
FXR-LBD = FXR-LBD (Homo sapiens, UniProt Q96RI1); test: FXR Coactivator Assay (LanthaScreen TR-FRET); type: biochemical; conditions: read-out: FXR Coactivator Assay (EC50)
FXR = FXR (Homo sapiens, UniProt Q96RI1); test: FXR Transactivation Assay (GAL4 luciferase reporter, pBIND-FXR in HEK293T); type: cell-based; conditions: read-out: FXR Transactivation Assay (EC50), HEK293T cells

The chains behind the UniProt entries cited, without tags or fusion partners. Residues count along the entry.
UniProt Q96RI1, whole entry: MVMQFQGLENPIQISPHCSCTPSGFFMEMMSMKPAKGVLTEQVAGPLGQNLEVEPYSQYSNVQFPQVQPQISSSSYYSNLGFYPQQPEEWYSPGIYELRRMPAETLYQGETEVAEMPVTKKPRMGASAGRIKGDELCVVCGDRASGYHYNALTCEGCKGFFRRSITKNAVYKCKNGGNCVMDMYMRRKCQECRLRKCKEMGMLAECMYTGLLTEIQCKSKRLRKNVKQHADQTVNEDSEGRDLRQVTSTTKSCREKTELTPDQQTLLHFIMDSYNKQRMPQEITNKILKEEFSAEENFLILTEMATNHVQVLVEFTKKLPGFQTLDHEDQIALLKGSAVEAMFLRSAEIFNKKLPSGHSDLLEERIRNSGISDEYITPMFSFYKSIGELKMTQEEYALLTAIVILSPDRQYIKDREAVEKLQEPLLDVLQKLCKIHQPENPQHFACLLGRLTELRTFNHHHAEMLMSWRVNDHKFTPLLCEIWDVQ
UniProt Q96RI1, 262-486 limits assumed: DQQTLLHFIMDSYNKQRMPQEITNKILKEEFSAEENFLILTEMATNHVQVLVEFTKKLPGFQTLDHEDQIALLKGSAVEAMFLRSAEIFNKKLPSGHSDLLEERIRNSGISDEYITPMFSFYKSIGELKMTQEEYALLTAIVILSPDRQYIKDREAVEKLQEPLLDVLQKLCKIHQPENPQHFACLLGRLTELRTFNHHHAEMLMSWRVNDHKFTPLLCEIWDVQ

SMILES	EC50 (FXR-LBD) [nM]	EC50 (FXR) [nM]
C[C@@H]1CN(Cc2c(-c3ccccc3OC(F)(F)F)noc2C2CC2)CCN1c1nc2c(Cl)cc(C(=O)O)cc2s1	10 to 100	
COc1cc(C(=O)O)cc2sc(N3CCN(Cc4c(-c5c(Cl)cccc5Cl)noc4C(C)C)CCC3C)nc12 (centres unmarked)		401 to 5000
COc1cc(C(N)=O)cc2sc(N3C[C@H](C)N(Cc4c(-c5c(Cl)cccc5Cl)noc4C4CC4)C[C@H]3C)nc12		101 to 400
COc1cc(C(N)=O)cc2sc(N3CCN(Cc4c(-c5c(Cl)cccc5Cl)noc4C4CC4)[C@@H](C)C3)nc12		401 to 5000
Cc1cc(C(=O)O)cc2sc(N3CCN(Cc4c(-c5c(Cl)cccc5Cl)noc4C4CC4)[C@@H](C)C3)nc12		401 to 5000
Cc1cc(C(=O)O)cc2sc(N3C[C@H](C)N(Cc4c(-c5c(Cl)cccc5Cl)noc4C4CC4)C[C@H]3C)nc12		10 to 100
O=C(O)c1ccc2nc(N3CCN(Cc4c(-c5c(Cl)cccc5Cl)noc4C4CC4)CC3)sc2c1		401 to 5000
COc1cc(C(=O)O)cc2sc(N3CCN(Cc4c(-c5c(Cl)cccc5Cl)noc4C4CC4)CCC3C)nc12 (centres unmarked)	10 to 100	101 to 400
Cc1cc(C(=O)O)cc2sc(N3CCN(Cc4c(-c5c(Cl)cccc5Cl)noc4C(C)C)CC3)nc12	10 to 100	10 to 100
C[C@@H]1CN(c2nc3ccc(C(=O)O)cc3s2)CCN1Cc1c(-c2c(Cl)cccc2Cl)noc1C1CC1		401 to 5000
COc1cc(C(=O)O)cc2sc(N3CC4CCC(C3)N4Cc3c(-c4c(Cl)cccc4Cl)noc3C3CC3)nc12		101 to 400
C[C@@H]1CN(Cc2c(-c3c(Cl)cccc3Cl)noc2C2CC2)[C@@H](C)CN1c1nc2c(F)cc(C(=O)O)cc2s1		10 to 100
C[C@H]1CN(Cc2c(-c3c(Cl)cccc3Cl)noc2C2CC2)CCN1c1nc2ccc(C(=O)O)cc2s1		401 to 5000
COc1cc(C(=O)O)cc2sc(N3CCN(Cc4c(-c5c(Cl)cccc5Cl)noc4C4CC4)CC3C)nc12 (centres unmarked)	10 to 100	10 to 100
COc1cc(C(=O)O)cc2sc(N3C[C@H](C)N(Cc4c(-c5c(Cl)cccc5Cl)noc4C(C)C)C[C@H]3C)nc12	10 to 100	10 to 100
COc1cc(C(=O)O)cc2sc(N3CCN(Cc4c(-c5c(Cl)cccc5Cl)noc4C4CC4)[C@H](C)C3)nc12		10 to 100
C[C@@H]1CN(Cc2c(-c3c(Cl)cccc3Cl)noc2C2CC2)[C@@H](C)CN1c1nc2ccc(C(=O)O)cc2s1		10 to 100

SMILES	EC50 (FXR-LBD) [nM]	EC50 (FXR) [nM]
COc1cc(C(=O)O)cc2sc(N3CCN(Cc4c(-c5ccccc5OC(F)(F)F)noc4C4CC4)CC3)nc12		10 to 100
Cc1cc2nc(N3CCN(Cc4c(-c5c(Cl)cccc5Cl)noc4C4CC4)C[C@H]3C)sc2cc1C(=O)O		101 to 400
COc1cc(C(=O)O)cc2sc(N3CCN(Cc4c(-c5c(Cl)cccc5Cl)noc4C(C)C)CC3)nc12	10 to 100	101 to 400
COc1cc(C(=O)O)cc2sc(N3C[C@H](C)N(Cc4c(-c5c(Cl)cccc5Cl)noc4C4CC4)C[C@H]3C)nc12		10 to 100
Cc1cc(C(=O)O)cc2sc(N3C[C@@H](C)N(Cc4c(-c5c(Cl)cccc5Cl)noc4C4CC4)C[C@H]3C)nc12		401 to 5000
COc1cc(C(=O)O)cc2sc(N3CCN(Cc4c(-c5c(Cl)cccc5Cl)noc4C(C)C)[C@@H](C)C3)nc12	10 to 100	101 to 400
CC(C)c1onc(-c2c(Cl)cccc2Cl)c1CN1CCN(c2nc3c(F)cc(C(=O)O)cc3s2)CC1	10 to 100	101 to 400
Cc1cc(C(=O)O)cc2sc(N3CCN(Cc4c(-c5c(Cl)cccc5Cl)noc4C4CC4)C[C@H]3C)nc12		10 to 100
COc1cc(C(=O)O)cc2sc(N3CCC(Cc4c(-c5c(Cl)cccc5Cl)noc4C4CC4)C[C@@H]3C)nc12 (some centres unmarked)	10 to 100	
O=C(O)c1cc(F)c2nc(N3CCN(Cc4c(-c5c(Cl)cccc5Cl)noc4C4CC4)CC3)sc2c1		10 to 100
COc1cc(C(=O)O)cc2sc(N3C[C@@H](C)N(Cc4c(-c5c(Cl)cccc5Cl)noc4C4CC4)C[C@H]3C)nc12		401 to 5000
COc1cc(C(=O)O)cc2sc(C3CCN(Cc4c(-c5c(Cl)cccc5Cl)noc4C(C)C)C3)nc12 (centres unmarked)	101 to 400	
Cc1cc(C(=O)O)cc2sc(N3CCN(Cc4c(-c5c(Cl)cccc5Cl)noc4C4CC4)[C@H](C)C3)nc12		101 to 400
COc1cc(C(=O)O)cc2sc(N3C4CCCC3CN(Cc3c(-c5c(Cl)cccc5Cl)noc3C3CC3)C4)nc12		401 to 5000
CC(C)c1cnn(-c2c(Cl)cccc2Cl)c1CN1CCN(c2nc3c(F)cc(C(=O)O)cc3s2)CC1		101 to 400
C[C@H]1CN(c2nc3ccc(C(=O)O)cc3s2)CCN1Cc1c(-c2c(Cl)cccc2Cl)noc1C1CC1		401 to 5000
COc1cc(C(=O)O)cc2sc(N3CCN(Cc4c(-c5c(Cl)cccc5Cl)noc4C(C)C)[C@H](C)C3)nc12	10 to 100	10 to 100

The remaining lines, values ahead:

EC50 (FXR-LBD) [nM]	EC50 (FXR) [nM]	SMILES
	10 to 100	C[C@@H]1CN(Cc2c(-c3c(Cl)cccc3Cl)noc2C2CC2)CCN1c1nc2ccc(C(=O)O)cc2s1
10 to 100	10 to 100	COc1cc(C(=O)O)cc2sc(N3CCN(Cc4c(-c5c(Cl)cccc5Cl)noc4C4CC4)CC3)nc12
	401 to 5000	C[C@H]1CN(Cc2c(-c3c(Cl)cccc3Cl)noc2C2CC2)CCN1c1nc2c(F)cc(C(=O)O)cc2s1
	401 to 5000	COc1cc(C(=O)O)cc2sc(N3C[C@H](C)N(Cc4c(-c5c(Cl)cccc5Cl)noc4C(C)C)C[C@@H]3C)nc12
10 to 100	10 to 100	C[C@@H]1CN(Cc2c(-c3c(Cl)cccc3Cl)noc2C2CC2)CCN1c1nc2c(F)cc(C(=O)O)cc2s1
	101 to 400	C[C@H]1CN(c2nc3c(F)cc(C(=O)O)cc3s2)CCN1Cc1c(-c2c(Cl)cccc2Cl)noc1C1CC1
	101 to 400	C[C@@H]1CN(c2nc3c(F)cc(C(=O)O)cc3s2)CCN1Cc1c(-c2c(Cl)cccc2Cl)noc1C1CC1
	10 to 100	C[C@@H]1CN(Cc2c(-c3c(Cl)cccc3Cl)noc2C2CC2)CCN1c1nc2c(Cl)cc(C(=O)O)cc2s1
	10 to 100	Cc1cc(C(=O)O)cc2sc(N3CCN(Cc4c(-c5c(Cl)cccc5Cl)noc4C4CC4)CC3)nc12
401 to 5000		Cn1c(N2CCN(Cc3c(-c4c(Cl)cccc4Cl)noc3C3CC3)CC2)nc2cc(C(=O)O)ccc21
10 to 100	101 to 400	COc1cc(C(=O)O)cc2sc(N3CCN(Cc4c(-c5c(Cl)cncc5Cl)noc4C(C)C)CC3)nc12
	401 to 5000	C[C@@H]1CN(c2nc3c(F)cc(C(=O)O)cc3s2)[C@H](C)CN1Cc1c(-c2c(Cl)cccc2Cl)noc1C1CC1
10 to 100	10 to 100	COc1cc(C(=O)O)cc2sc(N3CCN(Cc4c(-c5ccccc5OC(F)(F)F)noc4C(C)C)CC3)nc12
	10 to 100	COc1cc(C(N)=O)cc2sc(N3CCN(Cc4c(-c5c(Cl)cccc5Cl)noc4C4CC4)[C@H](C)C3)nc12
	101 to 400	CC(C)c1onc(-c2c(Cl)cccc2Cl)c1CN1CCN(c2nc3ccc(C(=O)O)cc3s2)CC1
	10 to 100	C[C@@H]1CN(Cc2c(-c3c(Cl)cccc3Cl)noc2C2CC2)CCN1c1nc2cc(F)c(C(=O)O)cc2s1
10 to 100	101 to 400	COc1cc(C(=O)O)cc2sc(N3C[C@@H](C)N(Cc4c(-c5c(Cl)cccc5Cl)noc4C(C)C)C[C@@H]3C)nc12
10 to 100		CC(C)c1onc(-c2c(Cl)cccc2Cl)c1CN1CCN(c2cc3cc(C(=O)O)ccc3n2C)CC1
10 to 100	10 to 100	COc1cc(C(N)=O)cc2sc(N3CCN(Cc4c(-c5c(Cl)cccc5Cl)noc4C4CC4)C[C@H]3C)nc12
	101 to 400	Cc1cc(C(=O)O)cc2sc(N3CCN(Cc4c(C(C)C)cnn4-c4c(Cl)cccc4Cl)CC3)nc12
	401 to 5000	C[C@@H]1CN(c2nc3c(F)cc(C(=O)O)cc3s2)[C@@H](C)CN1Cc1c(-c2c(Cl)cccc2Cl)noc1C1CC1
	10 to 100	C[C@@H]1CN(Cc2c(-c3c(Cl)cccc3Cl)noc2C2CC2)CCN1c1nc2c(C(F)(F)F)cc(C(=O)O)cc2s1
	401 to 5000	Cc1cc(C(=O)O)cc2sc(N3CCN(Cc4c(-c5c(Cl)cccc5Cl)noc4C4CC4)C[C@@H]3C)nc12
